Numbered stars: 1 amine (or outer) side, 2 acyl side, 3 side chain; on linkers, the order of the positions; unused ones are H or OH. Square brackets hold non-standard residues; d marks the D form. Peptide text beside a SMILES is read from it. X1 = CC(C)([C@@H]1CO1)n1cc([C@@H](O)[C@H](N[*:1])C(=O)[*:2])c2ccccc21; Ala(3R-Me,3-isobutenyl) = CC(C)=C[C@@H](C)[C@H](N)C(=O)O; NMeLeu(5-OH,4R) = CN[C@@H](C[C@@H](C)CO)C(=O)O; Phe(βR-OMe) = CO[C@H](c1ccccc1)[C@H](N)C(=O)O; NMeL = CN[C@@H](CC(C)C)C(=O)O
Tested on: luc transcript under the control of the clpC2 promoter
Test: RT-qPCR of luciferase reporter under clpC2 promoter after CymA
Conditions: for Cq value (printed ClpC2) / Cq value RpoB (reference gene): 150 nM CymA
[1] = Msm WT reporter strain, replicate 1
[2] = Msm WT reporter strain, replicate 2
[3] = Msm WT reporter strain, replicate 3
[4] = Msm ΔclpC2 reporter strain, replicate 1
[5] = Msm ΔclpC2 reporter strain, replicate 2
[6] = Msm ΔclpC2 reporter strain, replicate 3

SMILES: CO[C@H](c1ccccc1)[C@@H]1NC(=O)[C@H](C)NC(=O)[C@H](C[C@@H](C)CO)N(C)C(=O)[C@H]([C@H](O)c2cn(C(C)(C)[C@@H]3CO3)c3ccccc23)NC(=O)[C@H]([C@H](C)C=C(C)C)NC(=O)[C@H](CC(C)C)N(C)C(=O)[C@H](C(C)C)NC1=O [CymA, cyclomarin A] (cyclo(A[Phe(βR-OMe)]V[NMeL][Ala(3R-Me,3-isobutenyl)][X1][NMeLeu(5-OH,4R)]))
- luciferase expression, WT reporter strain (150 nM CymA vs absence of CymA, Msm WT, normalised to rpoB): significantly higher
- CymA-dependent luciferase expression, ΔclpC2 reporter strain (150 nM CymA vs absence, Msm ΔclpC2): not observed
- Cq value (printed ClpC2) [1]: 20.6929
- Cq value RpoB (reference gene) [1]: 23.3719
- Cq value (printed ClpC2) [2]: 20.7341
- Cq value RpoB (reference gene) [2]: 23.3923
- Cq value (printed ClpC2) [3]: 20.7565
- Cq value RpoB (reference gene) [3]: 23.3048
- Cq value (printed ClpC2) [4]: 20.5263
- Cq value RpoB (reference gene) [4]: 23.28
- Cq value (printed ClpC2) [5]: 20.828
- Cq value RpoB (reference gene) [5]: 23.4048
- Cq value (printed ClpC2) [6]: 19.8021
- Cq value RpoB (reference gene) [6]: 22.3677
